{"sequences": {"note": "Protein sequences, listed by entry. Tags and fused reporters are not part of them.", "UniProt P47745, whole entry": "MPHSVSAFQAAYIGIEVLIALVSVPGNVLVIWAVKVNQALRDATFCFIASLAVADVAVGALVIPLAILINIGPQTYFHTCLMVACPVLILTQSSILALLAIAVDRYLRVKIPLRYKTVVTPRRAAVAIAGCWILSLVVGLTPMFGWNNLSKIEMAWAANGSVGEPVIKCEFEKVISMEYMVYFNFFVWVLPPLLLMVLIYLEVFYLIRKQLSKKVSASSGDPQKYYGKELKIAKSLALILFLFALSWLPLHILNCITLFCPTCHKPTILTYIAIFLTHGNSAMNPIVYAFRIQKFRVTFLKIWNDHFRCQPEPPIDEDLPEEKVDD"}, "source": "patent US5380714A", "about": "(dated 1995)", "target": "adenosine receptor known as A1 (Cavia porcellus, UniProt P47745)", "data": [{"smiles": "Cn1c(=O)c2[nH]cnc2n(C)c1=O", "note": "[1,3-dimethylxanthine]", "values": [{"measurement": "Kb", "result": "~10", "unit": "µM"}]}]}
